As usually defined, the inhibition is the change of the read-out against control, counted positive when it falls.

Amino acid sequences for entries named in this document (tags omitted). A change or cut given only in a name is not applied to a line headed by its entry.
UniProt O42275: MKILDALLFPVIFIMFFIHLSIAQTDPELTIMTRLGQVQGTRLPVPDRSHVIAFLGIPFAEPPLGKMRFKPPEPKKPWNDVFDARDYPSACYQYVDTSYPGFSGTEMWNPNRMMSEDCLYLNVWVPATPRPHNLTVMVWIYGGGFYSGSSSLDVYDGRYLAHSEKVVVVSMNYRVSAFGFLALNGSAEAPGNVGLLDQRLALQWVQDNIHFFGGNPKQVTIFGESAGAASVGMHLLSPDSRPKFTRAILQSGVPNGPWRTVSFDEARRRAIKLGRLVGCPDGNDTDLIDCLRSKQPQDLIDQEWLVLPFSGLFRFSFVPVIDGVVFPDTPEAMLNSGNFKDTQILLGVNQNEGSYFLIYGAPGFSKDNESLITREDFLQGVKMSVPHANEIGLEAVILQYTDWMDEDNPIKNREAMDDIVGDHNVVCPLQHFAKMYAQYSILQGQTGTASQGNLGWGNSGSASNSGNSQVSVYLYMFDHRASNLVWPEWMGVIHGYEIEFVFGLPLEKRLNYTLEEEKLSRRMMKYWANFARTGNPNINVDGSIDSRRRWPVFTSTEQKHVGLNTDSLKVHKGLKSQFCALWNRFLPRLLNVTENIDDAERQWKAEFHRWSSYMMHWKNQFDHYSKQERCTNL
UniProt P22303: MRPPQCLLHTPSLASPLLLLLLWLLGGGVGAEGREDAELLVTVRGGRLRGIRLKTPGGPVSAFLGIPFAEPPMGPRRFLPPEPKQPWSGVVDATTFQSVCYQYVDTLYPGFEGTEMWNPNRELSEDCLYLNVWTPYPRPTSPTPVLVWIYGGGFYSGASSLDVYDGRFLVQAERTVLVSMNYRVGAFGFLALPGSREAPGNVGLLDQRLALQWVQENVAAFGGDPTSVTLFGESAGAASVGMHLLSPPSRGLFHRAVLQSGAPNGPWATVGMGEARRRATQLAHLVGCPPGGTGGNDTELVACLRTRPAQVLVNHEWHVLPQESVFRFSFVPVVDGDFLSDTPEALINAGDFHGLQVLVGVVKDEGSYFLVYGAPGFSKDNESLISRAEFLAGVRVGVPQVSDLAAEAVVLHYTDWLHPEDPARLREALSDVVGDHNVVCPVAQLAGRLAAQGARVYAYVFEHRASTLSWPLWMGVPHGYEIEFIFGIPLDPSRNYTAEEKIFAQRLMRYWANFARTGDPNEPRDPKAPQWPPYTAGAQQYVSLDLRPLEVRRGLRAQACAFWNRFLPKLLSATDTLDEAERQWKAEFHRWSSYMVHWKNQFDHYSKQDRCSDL

Assay [1] concerns the target Acetylcholinesterase (Electrophorus electricus) (UniProt O42275). The assay can be described thus: Inhibition of electric eel AChE using ACh as substrate at 0.1 mM measured for 30 mins by 1H NMR analysis relative to control.
Assay [2] has the same target. The assay is described as follows: Reactivation of paraoxon-inhibited electric eel AChE using ACh as substrate measured for 85 mins by 1H NMR analysis relative to control. On the set-up: scale not given: the % may be the effect or the level left.
Assay [3] has as its target Acetylcholinesterase (Homo sapiens) (UniProt P22303). The assay is described as follows: Reactivation of paraoxon-inhibited human AChE using acetylthiocholine iodide as substrate at 25 mmol/L preincubated for 30 mins followed by substrate addition by Ellman method relative to control. More on the design: scale not given: the % may be the effect or the level left.
The target of assay [4] is Acetylcholinesterase (Electrophorus electricus) (UniProt O42275). The assay can be described thus: Reactivation of paraoxon-inhibited electric eel AChE using ACh as substrate measured for 375 mins by 1H NMR analysis relative to control. On the set-up: scale not given: the % may be the effect or the level left.

In the case of `C[n+]1ccccc1C=NO`, the inhibition in assay [1] came out at 34%.

Consider `O/N=C/c1ccc(F)cc1`, for which, in assay [1], the inhibition is 1%. The compound also gave an Activity in assay [2] of 4.04%.

Compound `O/N=C/c1cccs1` gave an inhibition in assay [1] of 61%. For the same compound, the results for the Activity in assay [3], in assay [4] and in assay [2] were 93%, 58.6% and 8.02%, respectively.

For the compound `COc1ccc(/C=N/O)cc1`, the inhibition in assay [1] was 4%. In assay [2], this compound registered an Activity of 7.6%.

In turn, `O/N=C/c1ccccc1` returned an inhibition in assay [1] of 37%. In addition, the Activity in assay [4] amounted to 15.5%; in assay [2], 10%.

`O=[N+]([O-])c1ccc(/C=N/O)cc1`: the inhibition in assay [1] worked out at 0%. The same compound registered an Activity in assay [2] of 6.61%.

The compound `O/N=C/c1ccc(Cl)cc1` displayed an inhibition in assay [1] of 22%. Further, in assay [2], the Activity was determined as 4.42%.

Values taken from ChEMBL document CHEMBL2417470, “NMR determination of Electrophorus electricus acetylcholinesterase inhibition and reactivation by neutral oximes” (2013).
